Test results as given in article PMC10786919, “Design-rules for stapled peptides with in vivo activity and their application to Mdm2/X antagonists” (Nature Communications, 2024).
Like-named read-outs stand apart in the source and are kept apart here.

The chains behind the UniProt entries cited, without tags or fusion partners. A line that says so, or that is headed by a name, gives the form on record, which may keep a tag or linker. Residues count along the entry.
UniProt Q00987, 1-125 with tags or gaps: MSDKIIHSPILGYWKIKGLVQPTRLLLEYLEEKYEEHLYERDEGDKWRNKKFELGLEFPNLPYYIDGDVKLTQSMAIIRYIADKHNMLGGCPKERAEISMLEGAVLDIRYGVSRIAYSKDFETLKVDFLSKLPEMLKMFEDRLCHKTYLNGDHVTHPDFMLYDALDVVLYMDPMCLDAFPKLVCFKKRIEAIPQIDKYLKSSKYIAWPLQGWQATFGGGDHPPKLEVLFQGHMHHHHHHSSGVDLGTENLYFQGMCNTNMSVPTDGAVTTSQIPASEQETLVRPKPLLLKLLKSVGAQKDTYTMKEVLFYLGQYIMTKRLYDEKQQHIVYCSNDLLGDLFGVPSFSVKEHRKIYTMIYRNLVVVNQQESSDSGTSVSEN

Columns and labels:
human Mdm2 1–125 = human Mdm2 1–125 (Homo sapiens, UniProt Q00987); test: Mdm2 binding by competitive fluorescence anisotropy assay (FP binding); details: read-out: FP binding assay KD; Tween-20 <CMC
HCT116 cells = test: Lactate dehydrogenase (LDH) release assay; assay type: cell-based; details: for EC50: read-out: LDH: Cytotoxicity assay EC50
[1] = tested on: p53 responsive β-lactamase reporter in HCT116 cells; details: for EC50: read-out: p53 reporter assay EC50
[2] = tested on: Jump-In T-REx CHO-K1 BLA cells; details: for EC50: read-out: TETCHO: Counterscreen EC50

C[C@H]1CC[C@H](Cn2c(N3CCOC[C@H]3c3ccccc3)nc3cc(-c4noc(=O)[nH]4)nc(-c4cncc(Cl)c4)c32)CC1
Kd (human Mdm2 1–125): 4.3 nM | LDH: Cytotoxicity assay % Effect (HCT116 cells; 0% FBS 4Hr): -4.4% | LDH: Cytotoxicity assay % Effect (HCT116 cells; 10% FBS 4Hr): -14.3% | LDH: Cytotoxicity assay % Effect (HCT116 cells; 10% FBS 16Hr): -16.3% | EC50 (HCT116 cells; 0% FBS 4Hr): > 50700 nM | EC50 (HCT116 cells; 10% FBS 4Hr): > 50700 nM | EC50 (HCT116 cells; 10% FBS 16Hr): > 50700 nM | p53 reporter assay % Effect ([1]; 0% FBS 4Hr): 75.7% | p53 reporter assay % Effect ([1]; 10% FBS 4Hr): 96.3% | p53 reporter assay % Effect ([1]; 10% FBS 16Hr): 82.6% | EC50 ([1]; 0% FBS 4Hr): 4.54 nM | EC50 ([1]; 10% FBS 4Hr): 22.7 nM | EC50 ([1]; 10% FBS 16Hr): 151 nM | TETCHO: Counterscreen % Effect ([2]; 0% FBS 4Hr): 72.1% | TETCHO: Counterscreen % Effect ([2]; 10% FBS 4Hr): 67.6% | TETCHO: Counterscreen % Effect ([2]; 10% FBS 16Hr): 51% | EC50 ([2]; 0% FBS 4Hr): 12600 nM | EC50 ([2]; 10% FBS 4Hr): 834 nM | EC50 ([2]; 10% FBS 16Hr): 18300 nM
